Columns and labels:
[1] = molecular target: κ opioid receptor (Homo sapiens (Human), UniProt P41145); assay: κ-opioid receptor [35S]GTPγS functional assay, U-2 OS cells; type: biochemical; conditions: read-out: Activity Response κ EC50 (nM) [mean ± SEM], κ GTP, tested form: TFA salt
[2] = molecular target: T1, μ-opioid receptors (Homo sapiens (Human), UniProt P35372); assay: μ-opioid receptor [35S]GTPγS functional assay, U-2 OS cells; type: biochemical; conditions: read-out: Activity Response μ EC50 (nM) [mean ± SEM], μ GTP, tested form: TFA salt
Procedure: [^35S]GTPγS functional assays were conducted using freshly thawed μ-receptor membranes prepared from a cell line expressing recombinant μ opioid receptor in a HEK-293, CHO or U-2 OS cell background or purchased from a commercial source (Perkin Elmer, Shelton, Conn.; or DiscovRx, Fremont, Calif.). Assay reactions were prepared by sequentially adding the following reagents to binding buffer (100 mM NaCl, 10 mM MgCl2, 20 mM HEPES, pH 7.4) on ice (final concentrations indicated): membrane protein (0.026 mg/mL), saponin ([…]), GDP ([…]) and [^35S]GTPγS (0.20 nM; Perkin Elmer, Shelton, Conn.). […] BetaScint scintillation cocktail (Perkin Elmer, Shelton, Conn.) was added (50 μl/well) and plates were counted using a Packard Top-Count for 1 min/well. Data were analyzed using the sigmoidal dose-response curve fitting functions in GraphPad PRISM v. […]
The following tables provide results on the efficacy of binding and activity response of exemplified Compounds of the Invention at the μ- and κ-opioid receptors. In TABLE 3, binding affinity of certain Compounds of the Invention to the μ- and κ-opioid receptors was determined as described above. In TABLE 4, activity response of certain Compounds of the Invention to the μ- and κ-opioid receptors was determined as described above for functional assays using HEK-293 cells. […]

Sequences of proteins named here, by UniProt entry; tags and fusion partners are left off.
UniProt P41145, whole entry: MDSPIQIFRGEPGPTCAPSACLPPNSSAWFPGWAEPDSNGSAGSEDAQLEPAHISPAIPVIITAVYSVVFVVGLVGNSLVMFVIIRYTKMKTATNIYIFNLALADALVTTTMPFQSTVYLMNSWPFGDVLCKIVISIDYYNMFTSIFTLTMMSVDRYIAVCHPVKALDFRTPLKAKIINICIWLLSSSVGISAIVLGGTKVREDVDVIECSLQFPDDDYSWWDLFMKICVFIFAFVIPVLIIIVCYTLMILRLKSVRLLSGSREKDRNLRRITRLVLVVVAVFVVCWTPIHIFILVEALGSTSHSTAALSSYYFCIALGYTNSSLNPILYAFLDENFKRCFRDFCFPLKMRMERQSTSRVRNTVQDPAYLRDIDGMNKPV
UniProt P35372, whole entry: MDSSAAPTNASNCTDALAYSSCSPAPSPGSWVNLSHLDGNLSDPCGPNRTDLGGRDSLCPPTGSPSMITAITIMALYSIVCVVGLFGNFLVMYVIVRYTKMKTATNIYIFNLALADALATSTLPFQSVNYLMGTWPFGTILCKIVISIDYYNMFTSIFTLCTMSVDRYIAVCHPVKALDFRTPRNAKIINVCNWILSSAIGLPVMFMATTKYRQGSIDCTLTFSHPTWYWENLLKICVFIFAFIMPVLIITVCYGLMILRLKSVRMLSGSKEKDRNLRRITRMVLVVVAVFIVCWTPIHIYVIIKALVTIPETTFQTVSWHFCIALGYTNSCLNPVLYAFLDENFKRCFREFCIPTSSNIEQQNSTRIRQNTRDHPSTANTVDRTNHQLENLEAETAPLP

[3] = molecular target: T1, μ-opioid receptors; assay: μ-opioid receptor radioligand dose-displacement binding assay ([3H]-diprenorphine); conditions: read-out: Binding Affinity Opioid Receptor Ki (nM) [mean ± SEM] μ, tested form: TFA salt
Procedure: Radioligand dose-displacement binding assays for μ-opioid receptors used 0.3 nM [^3H]-diprenorphine (Perkin Elmer, Shelton, Conn.), with […] membrane protein/well in a final volume of 500 μl binding buffer (10 mM MgCl2, 1 mM EDTA, 5% DMSO, 50 mM HEPES, pH 7.4). Reactions were carried out in the absence or presence of increasing concentrations of unlabeled naloxone. All reactions were conducted in 96-deep well polypropylene plates for 2 hours at room temperature. […] BetaScint scintillation cocktail (Perkin Elmer, Shelton, Conn.) was added (50 μl/well), and plates were counted using a Packard Top-Count for 1 min/well. The data were analyzed using the one-site competition curve fitting functions in GraphPad PRISM™ v. […]
The following tables provide results on the efficacy of binding and activity response of exemplified Compounds of the Invention at the μ- and κ-opioid receptors. In TABLE 3, binding affinity of certain Compounds of the Invention to the μ- and κ-opioid receptors was determined as described above. In TABLE 4, activity response of certain Compounds of the Invention to the μ- and κ-opioid receptors was determined as described above for functional assays using HEK-293 cells. In TABLE 5, activity response of certain Compounds of the Invention to the μ- and κ-opioid receptors was determined as described above using U-2 OS cells.

[4] = molecular target: recombinant human kappa opioid receptor (κ) (Homo sapiens (Human), UniProt P41145); assay: κ-opioid receptor radioligand dose displacement binding assay ([3H]-U69,593); conditions: read-out: Binding Affinity Opioid Receptor Ki (nM) [mean ± SEM] κ, tested form: TFA salt
Procedure: Membranes from HEK-293 cells, CHO or U-2 OS cells expressing the recombinant human kappa opioid receptor (κ) were prepared by lysing cells in ice cold hypotonic buffer (2.5 mM MgCl2, 50 mM HEPES, pH 7.4) (10 mL/10 cm dish) followed by homogenization with a tissue grinder/Teflon pestle. Membranes were collected by centrifugation at 30,000×g for 15 min at 4° C. and pellets were resuspended in hypotonic buffer to a final concentration of 1-3 mg/mL. Protein concentrations were determined using the BioRad protein assay reagent with bovine serum albumen as standard. Aliquots of κ receptor membranes were stored at −80° C.
Radioligand dose displacement assays used 0.4 nM [^3H]-U69,593 (GE Healthcare, Piscataway, N.J.; 40 Ci/mmole) with 15 μg membrane protein (recombinant κ opioid receptor expressed in HEK 293 cells; in-house prep) in a final volume of 200 μl binding buffer (5% DMSO, 50 mM Trizma base, pH 7.4). Non-specific binding was determined in the presence of 10 μM unlabeled naloxone or U69,593. All reactions were performed in 96-well polypropylene plates for 1 hour at a temperature of about 25° C. […] Fifty μl/well scintillation cocktail (Perkin Elmer, Shelton, Conn.) was added and plates were counted in a Packard Top-Count for 1 min/well. […]

For `COc1ccc2c(c1)C13CCN(CC4CC4)C(C2)C1(O)CC(OCc1ccccc1)C(=O)C3` (stereo not shown), the EC50 [1] was 317 nM, the EC50 [2] was 463 nM and the Ki [3] was 668 nM. It also gave a Ki [4] of 249 nM.

— patent US9388162B2, “Substituted morphinans and the use thereof” (Purdue Pharma L.P., priority 2012, dated 2016)
